Assay results: US20150004189A1
Each block holds one substance with its values, some of them ahead of it.

Key:
HLA-DP DPB1*0301 (human) = assay: inhibition of radiolabeled peptide binding to purified HLA-DP
HLA-DP DPB1*0201 (human) = assay: as above
HLA-DP DPB1*0501 (human) = assay: as above
[1] = biological target: HLA-DR DRB1*0162 (so in the source) (human); assay: inhibition of radiolabeled peptide binding to purified HLA class II
[2] = biological target: HLA-DP molecule DPB1*0301 (human); assay: inhibition of radiolabeled peptide binding to purified HLA-DP
HLA-DP DPB1*0101 (human) = assay: as above
HLA-DP DPB1*2001 (human) = assay: as above
HLA-DP DPB1*0401 (human) = assay: as above
HLA-DP DPB1*1401 (human) = assay: as above
[3] = biological target: HLA DP molecule DPB1*0301 (human); assay: competition vs radiolabeled peptide, purified HLA-DP
[4] = biological target: HLA DP molecule DPB1*0301 (human); assay: inhibition of radiolabeled peptide binding to purified HLA DP
[5] = biological target: HLA DP molecule DPB1*0402 (human); assay: competition vs radiolabeled peptide, purified HLA-DP

Substance: Poa p 5 peptide 131-145, … (Peptide ID 3324.1576)
IC50 (HLA-DP DPB1*0501 (human)): 800 nM

Substance: Der p 4 peptide 96-110, Peptide ID 3324.0987
IC50 [1]: 4780 nM

Substance: Der p 4 peptide 476-490, Peptide ID 3324.0975
IC50 [1]: 281 nM

Substance: Der p 1 (176-190) peptide 3324.0831
IC50 (HLA-DP DPB1*0301 (human)): 4340 nM

Substance: Poa p 5 peptide 206-220, … (Peptide ID 3324.1583)
IC50 (HLA-DP DPB1*0101 (human)): 566 nM

Substance: Cup s 1 peptide 211-225 … (Peptide ID 3324.0616)
IC50 (HLA-DP DPB1*0201 (human)): 92 nM
IC50 (HLA-DP DPB1*0501 (human)): 633 nM

Substance: Lol p 5 1 peptide, position 151, … (Peptide ID 3324.1167)
IC50 [2]: 78 nM

Substance: Der p 4 peptide 411-425, Peptide ID 3324.0980
IC50 [1]: 24 nM

Substance: Der p 4 peptide 482-496, Peptide ID 3324.0971
IC50 [1]: 16 nM

Substance: Der p 4 peptide 251-265, Peptide ID 3324.0976
IC50 [1]: 14 nM

Substance: Que a 1 peptide 16-30 … (Peptide ID 3324.1585)
IC50 (HLA-DP DPB1*0301 (human)): 30 nM
IC50 (HLA-DP DPB1*0201 (human)): 36 nM

Substance: Que a 1 peptide 11-25 … (Peptide ID 3324.1587)
IC50 (HLA-DP DPB1*0301 (human)): 326 nM
IC50 (HLA-DP DPB1*0201 (human)): 28 nM

Substance: Der p 4 peptide 321-335, Peptide ID 3324.0977
IC50 [1]: 9.2 nM

Substance: Pha a 5 peptide, position 181, … (Peptide ID 3324.1442)
IC50 [2]: 22 nM

Substance: Cla h 8 peptide, position 181, … (Peptide ID 3324.0602)
IC50 [3]: 695 nM

Substance: Lol p 5 1 peptide, position 306, … (Peptide ID 3324.1184)
IC50 [2]: 81 nM

Substance: Alt a 1 peptide, position 141 (Peptide ID 3324.0011)
IC50 [4]: 16900 nM

Substance: Cup s 1 peptide 91-105 … (Peptide ID 3324.0618)
IC50 (HLA-DP DPB1*0201 (human)): 304 nM

Substance: Sal k 1 1 peptide 191-205, … (Peptide ID 3324.1590)
IC50 (HLA-DP DPB1*0201 (human)): 495 nM

Substance: Poa p 5 peptide, position 56, … (Peptide ID 3324.1571)
IC50 [2]: 67 nM

Substance: Alt a 6 peptide, position 161, … (Peptide ID 3324.0073)
IC50 [3]: 5070 nM
IC50 [5]: 69 nM

Continued, values first:

IC50 (HLA-DP DPB1*0301 (human)): 96 nM
IC50 (HLA-DP DPB1*0201 (human)): 5000 nM
Substance: Cha o 1 peptide 96-110 … (Peptide ID 3324.0523)

IC50 (HLA-DP DPB1*0201 (human)): 1780 nM
Substance: Sal k 1 1 peptide 321-335, … (Peptide ID 3324.1589)

IC50 [2]: 11800 nM
Substance: Lol p 3 peptide, position 11, … (Peptide ID 3324.1142)

IC50 (HLA-DP DPB1*0301 (human)): 0.67 nM
Substance: Der p 4 (416-430) peptide 3324.0974

IC50 (HLA-DP DPB1*0301 (human)): 8.4 nM
Substance: Der p 4 (411-425) peptide 3324.0980

IC50 (HLA-DP DPB1*2001 (human)): 895 nM
IC50 (HLA-DP DPB1*0401 (human)): 760 nM
Substance: Cha o 1 peptide 211-225 … (Peptide ID 3324.0521)

IC50 (HLA-DP DPB1*0301 (human)): 7140 nM
IC50 (HLA-DP DPB1*0201 (human)): 819 nM
Substance: Cup a 1 peptide 71-85 … (Peptide ID 3324.0607)

IC50 (HLA-DP DPB1*1401 (human)): 1050 nM
IC50 (HLA-DP DPB1*0301 (human)): 2900 nM
IC50 (HLA-DP DPB1*0101 (human)): 114 nM
IC50 (HLA-DP DPB1*2001 (human)): 13000 nM
IC50 (HLA-DP DPB1*0501 (human)): 65 nM
IC50 (HLA-DP DPB1*0401 (human)): 383 nM
Substance: Lol p 1 peptide 176-190 … (Peptide ID 3324.1135)

IC50 [1]: 65 nM
Substance: Der f 1 peptide 136-150, Peptide ID 3324.0666

IC50 (HLA-DP DPB1*2001 (human)): 13 nM
Substance: Poa p 5 peptide 176-190, … (Peptide ID 3324.1578)

IC50 (HLA-DP DPB1*0201 (human)): 171 nM
Substance: Que a 1 peptide 21-35 … (Peptide ID 3324.1588)

IC50 [1]: 70 nM
Substance: Der p 1 peptide 131-145, Peptide ID 3324.0832

IC50 (HLA-DP DPB1*0301 (human)): 1600 nM
Substance: Der p 1 (136-150) peptide 3324.0829

IC50 (HLA-DP DPB1*0301 (human)): 20 nM
Substance: Der p 1 (131-145) peptide 3324.0832

IC50 (HLA-DP DPB1*0301 (human)): 820 nM
Substance: Aln g 1 (11-25) peptide 3324.0004

IC50 [2]: 15 nM
Substance: Pha a 5 peptide, position 201, … (Peptide ID 3324.1433)

IC50 [1]: 170 nM
Substance: Der p 4 peptide 381-395, Peptide ID 3324.0986

IC50 [3]: 36 nM
Substance: Alt a 7 peptide, position 190, … (Peptide ID 3324.0080)
